Consider 7 compounds from PubChem BioAssay AID1346984 (Tox21, 2019).

Only a part is listed here, and it is no random draw. Results filed as inconclusive are left out. The source made the active and inactive calls. The call rests on the fitted dose curve; in most records, active means well fitted activation curve with a large enough effect in the repeat runs; inconclusive means weak or mixed curves; inactive means no such curve, though single readings can be large or run the other way.
On the % scale 0 is the no-effect control and ±100 the full control effect.

For this test, the target named is Nuclear receptor subfamily 1 group I member 2 (Homo sapiens) (UniProt O75469). Briefly: CYP3A4 induction through human pregnane X receptor (PXR) by small molecules, qHTS assay. Further: nearly all actives have a fitted effect of over 40% in size. The conditions noted are these: DPX-2 HepG2 PXR, CYP3A4-luciferin luminescence, 24 h; at 46.1 µM (top of the series) unless noted. An excerpt: National Center for Advancing Translational Sciences [NCATS]
NIH Chemical Genomics Center [NCGC]
U.S. Environmental Protection Agency [EPA]
National Institutes of Environmental Health Sciences [NIEHS]
National Toxicology Program [NTP]
The Pregnane X receptor (PXR), a ligand activated nuclear receptor plays a critical role in the regulation of genes involved in drug metabolism and transporters. Activation of PXR is responsible for unwanted adverse drug reactions. PXR binds xenobiotics and when compounds interact with PXR enhances the expression of CYP3A genes. Identifying the compounds with the potential for PXR activation and CYP3A4 induction can be of importance in improving the efficacy of drugs with less toxicity and avoiding drug-drug interactions.
DPX-2 (Puracyp, Inc.) cell lines, used for screening against human PXR activation has HepG2 cells co-transfected with a PXR response element and a luciferase construct containing CYP3A4 promoter. Increase in luciferase activity can be used to identify the compounds that cause the induction of CYP3A4.
DPX-2 cells were dispensed at 2,000 cells per well in 5uL of assay medium into white, solid-bottom 1536-well plates using a Multidrop Combi dispenser (Thermo Scientific). The assay plates were incubated at 37C for 5hr before transferring 23nL of test compounds dissolved in DMSO and positive control via Pintool station (Wako). The assay plates were incubated at 37C for 24hr. After 24hr compound treatment, 1uL of 3uM (final concentration) P450 substrate (P450-Glo CYP3A4 screening system with Luciferin-IPA, Promega) was added by a Flying Reagent Dispenser (FRD, Aurora Discovery). The assay plates were incubated for 3hr at 37C. Then 5ul One-Glo assay reagent (Promega) was added to each plate by an FRD and following 30 min incubation at room temperature, luciferase activity was quantified on a ViewLux plate reader (Perkin Elmer).
In general terms: Quantitative high-throughput screening tests each substance at several concentrations.
Consider `O=[N+]([O-])[O-].[NH4+]`, for which the activation was inactive: 9.3%.

For the compound `CN(C)CCS`, the activation was inactive: -0.907%.

As to `O=[N+]([O-])c1cccc([N+](=O)[O-])c1`, the activation was inactive: -3.35%.

Turning to `O=[N+]([O-])OCC(CO[N+](=O)[O-])(CO[N+](=O)[O-])CO[N+](=O)[O-]`, the activation is inactive: -1%.

Turning to `C/C1=C2N=C(/C=C3N=C(/C(C)=C4\[N-][C@@](C)([C@@H]5N=C1[C@](C)(CCC(=O)NC[C@@H](C)OP(=O)([O-])O[C@H]1[C@@H](O)[C@@H](n6cnc7cc(C)c(C)cc76)O[C@@H]1CO)[C@H]5CC(N)=O)[C@@](C)(CC(N)=O)[C@@H]4CCC(N)=O)[C@@](C)(CC(N)=O)[C@@H]\3CCC(N)=O)C(C)(C)[C@@H]/2CCC(N)=O.[C-]#N.[Co+3]`, the activation was inactive: -1.97% [at 20.6 µM].

In the case of `OCCSCCO`, the activation was inactive: -9.94%.

`CC(C)OP(=O)(F)OC(C)C`: the activation is inactive: -10.2%.
